Data reported in US7094593B1, “Method for improving the function of heterologous G protein-coupled receptors” (priority 1998, dated 2006).

The chains behind the UniProt entries cited, without tags or fusion partners.
UniProt P20789, whole entry: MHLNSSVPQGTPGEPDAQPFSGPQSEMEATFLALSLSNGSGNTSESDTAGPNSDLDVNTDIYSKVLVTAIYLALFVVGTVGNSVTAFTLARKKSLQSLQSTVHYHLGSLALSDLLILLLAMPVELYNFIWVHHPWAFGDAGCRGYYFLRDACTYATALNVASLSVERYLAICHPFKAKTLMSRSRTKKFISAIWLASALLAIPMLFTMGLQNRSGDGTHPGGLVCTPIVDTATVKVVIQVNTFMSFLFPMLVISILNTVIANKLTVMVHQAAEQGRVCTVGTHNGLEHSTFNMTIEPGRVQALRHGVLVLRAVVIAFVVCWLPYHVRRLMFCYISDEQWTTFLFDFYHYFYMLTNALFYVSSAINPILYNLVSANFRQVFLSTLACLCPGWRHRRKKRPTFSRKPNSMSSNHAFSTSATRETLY

Target: wild type NTR1 (Rattus norvegicus, UniProt P20789)
Settings: read-out: EC50 of growth response; yeast cells expressing wild type NTR1, 18 hours

acetyl neurotensin 8-13 [AcNT8-13] showed an EC50 of 2.1 µM.
